Reference: patent US5508311A, “Aliphatic propargylamines as selective MAO-B inhibitors and as neuroprotective agents” (University of Saskatchewan, priority 1993, dated 1996)

Test system: dopamine neurons
Experiment: Protection of dopamine neurons against MPTP-induced neurotoxicity in the mice brain
Format: in vivo, mouse
Settings: MPTP alone (4×20 mg/Kg)
Experimental: The analyses of MPTP-induced neurotoxicity were conducted in accordance with Heikkila et al. (Proc. Natl. Acad. Sci. U.S.A. 85 (1988), 6172-6176) hereby incorporated by reference. Mice were treated with 4×20 mg/Kg MPTP-HCl (MPTP: N-methyl-4-phenyl-1,2,3,6-tetrahydropyridine) every 2 hours to induce depletion in the caudate nucleus. Two hours prior to MPTP challenge, aliphatic propargylamines were administered to the animals. Three days later, dopamine levels and dopamine uptake site densities (GBR bindings) were estimated.

Which results are given for CN1CC=C(c2ccccc2)CC1 [MPTP, N-methyl-4-phenyl-1,2,3,6-tetrahydropyridine, reference compound]?
Dopamine: 3.3 μg/gm; Dopamine binding site (GBR binding): 221 pmol/mg
